Experiments:
[1] = biological target: T1, Neutrophil elastase (Homo sapiens) (UniProt P08246); experiment: Tested for the rate constant against Human Leukocyte Elastase (HLE) inactivation
T1 sequence (whole entry): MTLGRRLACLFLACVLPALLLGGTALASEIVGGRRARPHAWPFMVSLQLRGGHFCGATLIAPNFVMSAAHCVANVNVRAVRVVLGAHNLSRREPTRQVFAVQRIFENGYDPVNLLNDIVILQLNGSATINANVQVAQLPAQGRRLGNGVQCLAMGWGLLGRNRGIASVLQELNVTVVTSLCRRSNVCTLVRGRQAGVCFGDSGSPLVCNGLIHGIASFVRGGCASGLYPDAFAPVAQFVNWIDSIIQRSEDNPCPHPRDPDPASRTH
How it was run: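 HLE from human sputum, active-site titrated with MeO-Suc-Ala-Ala-Pro-Val-CH2Cl; 1–3 nM active enzyme. […] Substrate and inhibitor concentrations varied to derive kon and Ki(ss).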

[2] = biological target: T1, Neutrophil elastase (Homo sapiens); experiment: Tested for inhibition of Human Leukocyte Elastase (HLE) in living polymorphonuclear leukocytes; type: cell-based; parameters: scale not given: the % may be the effect or the level left
How it was run: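 Human PMNs from citrated venous blood, 5 × 10^6 cells/mL, exposed to inhibitor (10 μg per mL, in DMSO) for 15 min at 37 °C, then washed three times. Stimulated with cytochalasin B for 5 min, then fMLP for 15 min. Supernatant elastase assayed with N-acetyl-Ala-Ala-Pro-Ala-7-(4-methyl)coumarylamide, 6 h at 25 °C, fluorescence read; DMSO-only controls.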

Compound	k on [1] [M⁻¹ s⁻¹]	Activity [2] [%]
CO[C@H]1C(=O)N2C(C(=O)c3ccccc3)=C(C)[C@@H](Sc3nnnn3C)S(=O)(=O)C12 (stereo partly drawn)	2.3	
CC(=O)CCC1=C(COC(C)=O)CS(=O)(=O)C2[C@@H](Cl)C(=O)N12 (stereo partly drawn)	2.1	
CO[C@H]1C(=O)N2C(C(=O)OC(C)(C)C)=C(CSc3nnnn3C)CS(=O)(=O)C12 (stereo partly drawn)	2	
CO[C@H]1C(=O)N2C(C(=O)C(C)(C)C)=C(CSc3nc(=O)c(=O)[nH]n3C)CS(=O)(=O)C12 (stereo partly drawn)	4.5	70
CO[C@H]1C(=O)N2C(C(=O)C(C)(C)C)=C(C)[C@@H](Sc3nc(=O)c(=O)[nH]n3C)S(=O)(=O)C12 (stereo partly drawn)	5.3	102
CO[C@H]1C(=O)N2C(C(=O)c3ccccc3)=C(CSc3nnnn3C)CS(=O)(=O)C12 (stereo partly drawn)	1.8	
Cn1nnnc1SCC1=C(C(=O)C(C)(C)C)N2C(=O)[C@H](Cl)C2S(=O)(=O)C1 (stereo partly drawn)	1.2	
CC1=C(C(=O)C(C)(C)C)N2C(=O)[C@H](Cl)C2S(=O)(=O)C1 (stereo partly drawn)	2.1	
CO[C@H]1C(=O)N2C(C(=O)C(C)(C)C)=C(C)[C@@H](OC(=O)c3ccccc3)S(=O)(=O)C12 (stereo partly drawn)	1.5e+06	
COCC1=C(C(=O)C(C)(C)C)N2C(=O)[C@H](Cl)C2S(=O)(=O)C1 (stereo partly drawn)	1.5	
CO[C@H]1C(=O)N2C(C(=O)C(C)(C)C)=C(C)[C@@H](Sc3nnc(C)s3)S(=O)(=O)C12 (stereo partly drawn)	47000	
CO[C@H]1C(=O)N2C(C(=O)OC(C)(C)C)=C(C)[C@@H](Sc3ccccn3)S(=O)(=O)C12 (stereo partly drawn)	4700	
CC(=O)OCC1=C(C(=O)Cc2ccccc2)N2C(=O)[C@H](Cl)C2S(=O)(=O)C1 (stereo partly drawn)	4.9	
CO[C@H]1C(=O)N2C(C(=O)c3ccccc3)=C(CSc3nnnn3C)[C@@H](Sc3nnnn3C)S(=O)(=O)C12 (stereo partly drawn)	2.2	
CC1=C(C(=O)C(C)(C)C)N2C(=O)[C@H](Cl)C2S(=O)(=O)[C@@H]1Sc1nnnn1C (stereo partly drawn)	1	
CC1=C(C(=O)c2ccccc2)N2C(=O)[C@H](Cl)C2S(=O)(=O)C1 (stereo partly drawn)	8	
CC(=O)OCC1=C(C(=O)C(C)(C)C)N2C(=O)[C@H](Cl)C2S(=O)(=O)[C@@H]1Sc1nnnn1C (stereo partly drawn)	5.7	
CC(=O)OCC1=C(C(=O)C(C)(C)C)N2C(=O)[C@H](Cl)C2S(=O)(=O)C1 (stereo partly drawn)	2.3	

Compound	k on [1] [M⁻¹ s⁻¹]	Activity [2] [%]
CO[C@H]1C(=O)N2C(C(=O)C(C)(C)C)=C(C)[C@@H](OC(=O)c3ccc4ccccc4c3)S(=O)(=O)C12 (stereo partly drawn)	> 2e+06	
CO[C@H]1C(=O)N2C(C(=O)C(C)(C)C)=C(COC(C)=O)CS(=O)(=O)C12 (stereo partly drawn)	24000	
CO[C@H]1C(=O)N2C(C(=O)C(C)(C)C)=C(C)[C@@H](S(=O)(=O)c3ccccc3)S(=O)(=O)C12 (stereo partly drawn)	280000	
CO[C@H]1C(=O)N2C(C(=O)N3CCCC3)=C(CSc3nc(=O)c(=O)[nH]n3C)CS(=O)(=O)C12 (stereo partly drawn)		98
CO[C@H]1C(=O)N2C(C(=O)C(C)(C)C)=C(CSc3nnnn3C)[C@@H](Sc3nnnn3C)S(=O)(=O)C12 (stereo partly drawn)	2.6	
CO[C@H]1C(=O)N2C(C(=O)C(C)(C)C)=C(CSc3nnnn3C)CS(=O)(=O)C12 (stereo partly drawn)	1.9	
CO[C@H]1C(=O)N2C(C(=O)C(C)(C)C)=C(CSc3nnnn3C)[C@@H](OC(=O)c3ccccc3)S(=O)(=O)C12 (stereo partly drawn)	> 2	
CCC(=O)C1=C(COC(C)=O)CS(=O)(=O)C2[C@@H](Cl)C(=O)N12 (stereo partly drawn)	7.3	
CC1=C(C(=O)c2ccccc2)N2C(=O)[C@H](Cl)C2S(=O)(=O)[C@@H]1Sc1nnnn1C (stereo partly drawn)	1.3	
CO[C@H]1C(=O)N2C(C(=O)C(C)(C)C)=C(CSc3ccccn3)CS(=O)(=O)C12 (stereo partly drawn)	23000	
CO[C@H]1C(=O)N2C(C(=O)C(C)(C)C)=C(C)[C@@H](Sc3ccccn3)S(=O)(=O)C12 (stereo partly drawn)	82000	
CC(=O)OCC1=C(C(=O)c2ccccc2)N2C(=O)[C@H](Cl)C2S(=O)(=O)C1 (stereo partly drawn)	1.5	
CO[C@H]1C(=O)N2C(C(=O)OC(C)(C)C)=C(CSc3ccccn3)CS(=O)(=O)C12 (stereo partly drawn)	900	
CO[C@H]1C(=O)N2C(C(=O)C(C)(C)C)=C(C)[C@@H](Sc3nnnn3C)S(=O)(=O)C12 (stereo partly drawn)	1	100
CO[C@H]1C(=O)N2C(C(=O)C(C)(C)C)=C(COC(C)=O)[C@@H](Sc3nnnn3C)S(=O)(=O)C12 (stereo partly drawn)	2	
CO[C@H]1C(=O)N2C(C(=O)C(C)(C)C)=C(C)[C@@H](OC(=O)c3ccc(CSc4nc(=O)c(=O)[nH]n4C)cc3)S(=O)(=O)C12 (stereo partly drawn)	7	
COC(=O)C1=C(COC(C)=O)CS(=O)(=O)C2[C@@H](Cl)C(=O)N12 (stereo partly drawn)	1.3	
